By UniProt entry, the sequences of proteins in these tests, tags left out.
UniProt P33535, whole entry: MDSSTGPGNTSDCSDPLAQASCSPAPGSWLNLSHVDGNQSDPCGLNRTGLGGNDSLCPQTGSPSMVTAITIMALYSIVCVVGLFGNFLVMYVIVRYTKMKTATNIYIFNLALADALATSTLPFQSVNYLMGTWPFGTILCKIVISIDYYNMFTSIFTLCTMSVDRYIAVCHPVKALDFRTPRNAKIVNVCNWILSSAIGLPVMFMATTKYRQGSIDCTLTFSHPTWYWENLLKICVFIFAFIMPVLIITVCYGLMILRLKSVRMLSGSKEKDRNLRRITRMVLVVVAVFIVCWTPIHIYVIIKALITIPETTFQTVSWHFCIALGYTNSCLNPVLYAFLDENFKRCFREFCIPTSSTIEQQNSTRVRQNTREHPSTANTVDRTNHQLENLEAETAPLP

According to ChEMBL document CHEMBL1135467 (J Med Chem, 2002):

Target: Mu-type opioid receptor (Rattus norvegicus, UniProt P33535)
Test: Binding affinity towards Opioid receptor mu 1 by displacing [3H]DAMGO in rat brain membranes.
Type: cell membranes
How it was run: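 Rat brain minus cerebellum homogenised in 0.32 M sucrose/10 mM Tris-HCl and spun. The pellet was preincubated 1 h to strip endogenous opioids. Membranes were incubated with 1 nM [3H]DAMGO in 50 mM Tris-HCl, 0.1% BSA, 2 mM EDTA, pH 7.4, 1 h at room temperature. Nonspecific binding used 100 µM DAMGO. GF/B filtration, scintillation counting.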

C[C@@H](NC(=O)[C@@H](N)Cc1ccc(O)cc1)C(=O)NCC(=O)N(C)[C@@H](Cc1ccccc1)C(=O)NCCO [DAMGO]
Ki: 1.6 nM
